Target: T1, inducible NO-synthase (NO-synthase 2) (Homo sapiens, UniProt P35228)
T1 construct: positive control (induction of the enzyme): mixtures of interferon-(1000 U/ml) and of interleukin 1-(100 U/ml); endogenous in cells
Experiment: Inhibition of inducible NO-synthase: nitrite/nitrate measured after induction with interferon and interleukin 1 (test of Heck et al.)
Format: cell-based
Conditions: test product or control at 200 μM, nitrites and nitrates, colorimetric assay
Experimental: The activity of ascorbyl 2-hexadecanoate on inducible NO-synthase was evaluated in the test described by Heck et al., (J. B. C., Vol. 267, No. 30, 21277-21280, Oct. 25, 1992). The object of this test is to show the reduction in the concentration of nitrate and nitrite, ultimately, after stimulating NO-synthase 2. The following controls were introduced into the tests: A: positive control (induction of the enzyme): mixtures of interferon-(1000 U/ml) and of interleukin 1-(100 U/ml); B: negative control (maximum inhibition): N^g-monomethyl-L-arginine (L form) at 200 μm; C: control of inhibition specificity: N^g-monomethyl-L-arginine (D form) at 200 μm. To determine the activity of the test product, the amount of stable NO reaction products (nitrites and nitrates) is measured using the “nitric colorimetric assay” kit marketed by Boehringer under the reference 1756.28. Ascorbyl 2-hexadecanoate was tested at concentrations of 20 μM, 100 μM and 200 μM in ethanol.

Sequences of proteins named here, by UniProt entry; tags and fusion partners are left off.
UniProt P35228, whole entry, species assumed: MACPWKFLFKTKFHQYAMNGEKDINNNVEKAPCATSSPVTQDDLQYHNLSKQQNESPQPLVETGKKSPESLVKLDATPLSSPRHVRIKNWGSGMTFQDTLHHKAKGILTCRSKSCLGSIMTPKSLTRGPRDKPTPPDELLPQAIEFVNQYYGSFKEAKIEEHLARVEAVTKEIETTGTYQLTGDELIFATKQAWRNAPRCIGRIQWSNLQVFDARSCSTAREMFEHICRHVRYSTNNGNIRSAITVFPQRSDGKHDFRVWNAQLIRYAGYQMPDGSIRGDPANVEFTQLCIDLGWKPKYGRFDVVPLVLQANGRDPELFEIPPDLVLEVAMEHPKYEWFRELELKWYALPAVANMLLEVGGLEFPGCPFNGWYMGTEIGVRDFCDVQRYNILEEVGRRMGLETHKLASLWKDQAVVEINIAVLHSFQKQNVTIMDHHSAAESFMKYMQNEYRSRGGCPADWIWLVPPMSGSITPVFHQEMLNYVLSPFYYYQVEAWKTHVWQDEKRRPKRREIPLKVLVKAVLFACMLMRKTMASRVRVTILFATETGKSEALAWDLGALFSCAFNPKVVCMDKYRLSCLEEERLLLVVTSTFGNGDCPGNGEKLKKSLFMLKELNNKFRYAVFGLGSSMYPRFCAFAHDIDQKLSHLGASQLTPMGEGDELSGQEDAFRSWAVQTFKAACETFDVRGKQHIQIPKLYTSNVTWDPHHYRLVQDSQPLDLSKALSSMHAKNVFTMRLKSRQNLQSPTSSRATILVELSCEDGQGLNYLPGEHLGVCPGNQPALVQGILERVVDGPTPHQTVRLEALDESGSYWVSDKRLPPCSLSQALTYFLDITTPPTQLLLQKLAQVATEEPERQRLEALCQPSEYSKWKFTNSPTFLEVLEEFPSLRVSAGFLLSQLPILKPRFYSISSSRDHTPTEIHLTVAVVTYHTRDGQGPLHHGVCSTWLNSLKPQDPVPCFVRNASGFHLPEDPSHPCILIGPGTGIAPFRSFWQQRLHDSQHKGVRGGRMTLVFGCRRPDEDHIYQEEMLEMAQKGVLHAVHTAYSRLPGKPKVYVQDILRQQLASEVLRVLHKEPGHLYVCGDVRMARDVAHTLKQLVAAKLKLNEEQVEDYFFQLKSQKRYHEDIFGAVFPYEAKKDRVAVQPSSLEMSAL

| Compound | % Inhibition [%] |
| --- | --- |
| CNC(=N)NCCC[C@H](N)C(=O)O [B, N^g-monomethyl-L-arginine, reference compound] | 100 |
| CNC(=N)NCCC[C@H](N)C(=O)O [C, N^g-monomethyl-L-arginine, reference compound] | 0 |

Source: US20040152768A1, “NO-synthase inhibitors comprising ascorbyl 2-hexadecanoate” (SOCIETE L'OREAL , S.A., priority 2001, published 2004)
